Values quoted from earlier work, collected in paper PMC9119314, “Semi-Synthetic Analogues of Cryptolepine as a Potential Source of Sustainable Drugs for the Treatment of Malaria, Human African Trypanosomiasis, and Cancer” (Frontiers in Pharmacology, 2022).

Tested on: P. berghei
Conditions: 50 mg/kg/dose, with an antimalarial effect, ref Wright et al., 1996; cited from earlier work

C[n+]1c2ccccc2cc2[n-]c3ccccc3c21 [Compound 1, cryptolepine]
Oral safety in mice: could be administered safely
